Target: T1, lecithin retinol acyl transferase (LRAT) (Bos taurus, UniProt Q9BGL2)
T1 sequence (Q9BGL2 1-230): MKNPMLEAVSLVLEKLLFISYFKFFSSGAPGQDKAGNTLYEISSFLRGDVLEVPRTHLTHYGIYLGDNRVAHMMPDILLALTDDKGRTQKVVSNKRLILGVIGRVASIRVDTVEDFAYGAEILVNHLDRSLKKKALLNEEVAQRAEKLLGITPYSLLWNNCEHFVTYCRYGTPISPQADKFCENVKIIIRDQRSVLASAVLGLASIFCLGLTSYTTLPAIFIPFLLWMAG
Assay: in vitro Microsomal Assay of retinol esterification, LRAT catalyzed (retinyl laurate)
Assay type: biochemical, bovine
Conditions: 100 μM test compound; solvent blank = 100% ester formation

% INHIBITION, LRAT | Substance
10% | delta methyl ionone [reference compound]
9% | dimethyl ionone [reference compound]

Reference: US6440434B1, “Skin care composition” (Conopco, Inc., priority 1999, dated 2002)
